Values of other authors as cited in article PMC5805549.
pKd: −log10 of the molar value.

Protein sequences, listed by entry. Tags and fused reporters are not part of them.
UniProt P30989, whole entry: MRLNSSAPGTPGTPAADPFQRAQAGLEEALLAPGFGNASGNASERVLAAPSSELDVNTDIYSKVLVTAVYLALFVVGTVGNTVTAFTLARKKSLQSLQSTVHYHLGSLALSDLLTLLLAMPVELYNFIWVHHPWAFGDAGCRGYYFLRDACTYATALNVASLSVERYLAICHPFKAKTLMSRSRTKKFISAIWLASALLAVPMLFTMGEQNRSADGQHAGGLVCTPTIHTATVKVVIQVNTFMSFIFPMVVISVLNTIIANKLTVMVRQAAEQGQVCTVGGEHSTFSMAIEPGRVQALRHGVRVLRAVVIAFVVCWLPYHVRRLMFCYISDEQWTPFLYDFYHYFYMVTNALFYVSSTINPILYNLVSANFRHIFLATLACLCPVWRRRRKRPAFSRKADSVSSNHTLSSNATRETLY

Molecular target: NTSR1 (Homo sapiens) (UniProt P30989)

- pKd: 9.70
Substance: neurotensin (from UniProt P30990)
